Test results from ChEMBL document CHEMBL1152038, “Quaternised renzapride as a potent and selective 5-HT4 receptor agonist” (Bioorg Med Chem Lett, 1993).

By UniProt entry, the sequences of proteins in these tests, tags left out. Where a name states a change or a piece, a line headed by the entry shows the natural chain unless it says otherwise.
UniProt Q62758: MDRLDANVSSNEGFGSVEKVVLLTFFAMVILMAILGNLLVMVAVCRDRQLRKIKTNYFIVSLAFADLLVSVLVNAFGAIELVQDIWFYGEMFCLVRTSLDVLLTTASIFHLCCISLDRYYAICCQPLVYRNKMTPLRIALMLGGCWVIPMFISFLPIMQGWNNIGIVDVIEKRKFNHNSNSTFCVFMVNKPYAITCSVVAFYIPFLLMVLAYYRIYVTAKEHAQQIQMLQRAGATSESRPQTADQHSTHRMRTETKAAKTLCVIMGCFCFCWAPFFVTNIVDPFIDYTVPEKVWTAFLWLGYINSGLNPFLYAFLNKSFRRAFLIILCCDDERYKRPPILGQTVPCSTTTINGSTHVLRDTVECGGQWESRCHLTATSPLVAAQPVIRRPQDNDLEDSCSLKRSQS

Molecular target: 5-hydroxytryptamine receptor 4 (Rattus norvegicus, UniProt Q62758)
Experiment: Tested for its agonist potency against the 5-hydroxytryptamine 4 receptor located in the rat esophageal tunica muscularis mucosae
Format: functional, tissue-based, Muscularis mucosa

EC50: 794 nM
SMILES: CCN(CC)CCNC(=O)c1cc(Cl)c(N)cc1OC [METOCLOPRAMIDE]
